In patent US20240189408A1, “COMPOSITIONS AND METHODS FOR REDUCING METHANE EMISSIONS IN RUMINANT POPULATIONS” (Arkea Bio Corp., priority 2022, published 2024):

Test: Adsorbent study: binding affinity and adsorptive capacity for 3-NOP, HPLC at 230 nm
Conditions: 0.2 g of adsorbent in 10 mL of 1% 3-NOP/H2O, after 24h; control 8.258 mM

Iron Phosphate gave a 3-NOP concentration of 7.503 mM.
